Measured values: PMC8920097, “Prediction of hERG inhibition of drug discovery compounds using biomimetic HPLC measurements” (ADMET & DMPK, 2021)

Assay: Phospholipid binding at pH 7.4 on IAM PC.DD2 HPLC column
Details: pH 7.4, derived from CHI IAM by equation 1

CN(CCOc1ccc(NS(C)(=O)=O)cc1)CCc1ccc(NS(C)(=O)=O)cc1 [Dofetilide]
log k IAM: 1.94
